Measurements: patent US20230175069A1, “COMPOSITIONS AND METHODS FOR DETECTING GENE FUSIONS OF ESR1 AND CCDC170 FOR DETERMINING INCREASED RESISTANCE TO ENDOCRINE THERAPY AND FOR CANCER TREATMENT” (UNIVERSITY OF PITTSBURGH-OF THE COMMONWEAL TH SYSTEM OF …, priority 2020, published 2023)

Columns and labels:
[1] = test system: T47D cells ectopically expressing ESR1-CCDC170 variants; details: estrogen-deprived; tamoxifen 0.5 µM plus lapatinib 0.5 µM or dasatinib 0.05 µM
[2] = test system: T47D xenograft tumors expressing E2-E7
[3] = test system: T47D xenograft tumors expressing vector; details: vector group; tamoxifen 25 ug/kg subcutaneously 5 days/week
[4] = test system: T47D xenograft tumors expressing E2-E10

| Compound | colony formations, tamoxifen plus inhibitor compared to tamoxifen monotreatment [1] | regression-free survival (time to tumor halving), Kaplan-Meier ([2]; E2-E7-overexpressing tumors treated with tamoxifen compared to vector control tumors) | response of xenografts to tamoxifen treatment ([2]; E2-E7 expressing T47D xenografts) | decrease in tumor size ([2]; E2-E7 expressing tumors, tamoxifen 25 ug/kg subcutaneously 5 days/week) [%] | decrease in tumor size [3] [%] | regression-free survival (time to tumor halving), Kaplan-Meier ([4]; E2-E10-overexpressing tumors treated with tamoxifen compared to vector control tumors) | response of xenografts to tamoxifen treatment ([4]; E2-E10 expressing T47D xenografts) | change in tumor volumes ([4]; E2-E10 expressing tumors, tamoxifen 25 ug/kg subcutaneously 5 days/week) |
| --- | --- | --- | --- | --- | --- | --- | --- | --- |
| Cc1nc(Nc2ncc(C(=O)Nc3c(C)cccc3Cl)s2)cc(N2CCN(CCO)CC2)n1 [dasatinib] | significantly reduced | – | – | – | – | – | – | – |
| CS(=O)(=O)CCNCc1ccc(-c2ccc3ncnc(Nc4ccc(OCc5cccc(F)c5)c(Cl)c4)c3c2)o1 [lapatinib] | significantly reduced | – | – | – | – | – | – | – |
| CC/C(=C(\c1ccccc1)c1ccc(OCCN(C)C)cc1)c1ccccc1 [tamoxifen] | – | significantly worse regression-free survival | partial response | 14 | 51 | significantly worse regression-free survival | stable/progressive disease | almost two folds increase in tumor volumes |
